We go through four compounds from ChEMBL document CHEMBL5137076, “SLL-627 Is a Highly Selective and Potent κ Opioid Receptor (KOR) Agonist with an Unexpected Nonreduction in Locomotor Activity” (2022).

Data set [1] can be described thus: Toxicity in ICR mouse assessed as reduction in time stayed in rod at 0.006 to 0.02 mg/kg, ip for 20 mins by rotarod test. The note with it: in vivo. On the technique in general: In the rotarod test animals must keep their balance on a rotating rod.
Data set [2] can be described thus: Toxicity in CD-1 mouse assessed as conditional preference aversion at ED50, ip administered for 7 day. The note with it: in vivo, 168 h.
Data set [3] in a line: Toxicity in ICR mouse assessed as reduction in time stayed in rod at 5 mg/kg, ip for 30 mins by rotarod test. The settings on record: in vivo, 0.5 h.
Data set [4] is described as follows: Toxicity in ICR mouse assessed as reduction in time stayed in rod at 2.1 mg/kg, ip for 3 hrs by rotarod test. The note with it: in vivo.
The nature of data set [5]: Toxicity in ICR mouse assessed as reduction in time stayed in rod at 7.5 mg/kg, ip for 3 hrs by rotarod test. The settings on record: in vivo.
A short description of data set [6]: Toxicity in CD-1 mouse assessed as conditional preference aversion at ED90, ip administered for 7 day. The settings on record: in vivo, 168 h.
The nature of data set [7]: Toxicity in ICR mouse assessed as reduction in time stayed in rod at ED50 to ED90, ip for 4 hrs by rotarod test. The settings on record: in vivo.
Data set [8] is described as follows: Toxicity in Kunming mouse assessed as effect on spontaneous locomotor activity at ED50 to ED90, ip after 4 hrs followed by locomotion measured for 1 hr. The note with it: in vivo, 5 h.

As for `CN(C(=O)/C=C/c1ccoc1)[C@@H]1CC[C@@]2(O)[C@H]3Cc4ccc(O)c5c4[C@@]2(CCN3CC2CC2)[C@H]1O5`, in data set [1], the Activity entry is reported as “Non-Toxic”.

Consider `CN(C(=O)Cc1ccc(Cl)c(Cl)c1)C1CCCCC1N1CCCC1.CS(=O)(=O)O` (centres undefined), for which the Activity entry in data set [2] and in data set [3] was “Toxic” throughout.

Take `COc1ccc2c3c1O[C@H]1[C@@]4(OC)C=C[C@@]5(C[C@@H]4C(=O)c4ccccc4)[C@@H](C2)N(CC2CC2)CC[C@]315`: the Activity result is recorded as “Non-Toxic” in data set [4] and “Toxic” in data set [5].

Consider `COc1ccc2c3c1O[C@H]1[C@@]4(OC)CC[C@@]5(C[C@@]4(C)[C@H](O)c4ccccc4)[C@@H](C2)N(CC2CC2)CC[C@]315`, for which the Activity entry in data set [2] is on record as “Non-Toxic”; in data set [6], “Toxic”; in data set [7] it was “Non-Toxic”; in data set [8] it was “Non-Toxic”.
